These are literature values, as cited in US20020173640A1, “ADAM polynucleotides, polypeptides, and antibodies” (Human Genome Sciences, Inc., priority 1999, published 2002).

Protein sequences, listed by entry. Tags and fused reporters are not part of them. Residues count along the entry.
UniProt P08254, 100-477: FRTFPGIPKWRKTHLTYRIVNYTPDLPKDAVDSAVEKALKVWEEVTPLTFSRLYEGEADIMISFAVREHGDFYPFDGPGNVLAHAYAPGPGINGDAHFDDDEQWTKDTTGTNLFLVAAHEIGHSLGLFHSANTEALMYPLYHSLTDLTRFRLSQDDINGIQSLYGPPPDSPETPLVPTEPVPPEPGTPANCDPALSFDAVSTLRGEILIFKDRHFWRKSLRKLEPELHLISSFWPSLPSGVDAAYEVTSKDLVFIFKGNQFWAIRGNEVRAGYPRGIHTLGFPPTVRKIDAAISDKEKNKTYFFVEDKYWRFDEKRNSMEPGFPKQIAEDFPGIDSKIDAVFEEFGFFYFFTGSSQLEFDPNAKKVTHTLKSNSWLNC

In this series the target is MMP-3 (Homo sapiens, UniProt P08254). The following applies: commercial (CALBIOCHEM) inhibitor data; read-out: K1 against MMP-3; cited from earlier work.

Take `COc1ccc(S(=O)(=O)N(CC(=O)NO)CC(C)C)cc1` [MMP-3 inhibitor II, N-Isobutyl-N-(4-methoxyphenylsulfonyl)-glycylhydroxamic acid]: the Ki is 130 nM.
